# Antibody variant affinities, Ab-14 heavy chain, assay 1

Reference: Engelhart et al. 2022, doi:10.1038/s41597-022-01779-4. File: FLAb, binding data.

Target: peptide PDVDLGDISGINAS, taken from heptad repeat 2 (HR2) of SARS-CoV-2 spike.

Each scFv is VH, a 15-residue (Gly4Ser)3 linker, VL, as in the parent Ab-14, and differs from it in the CDRs of the heavy chain only.
VH: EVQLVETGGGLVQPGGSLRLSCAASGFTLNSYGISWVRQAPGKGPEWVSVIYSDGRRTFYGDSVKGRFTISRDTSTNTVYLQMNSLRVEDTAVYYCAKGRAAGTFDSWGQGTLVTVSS
VL: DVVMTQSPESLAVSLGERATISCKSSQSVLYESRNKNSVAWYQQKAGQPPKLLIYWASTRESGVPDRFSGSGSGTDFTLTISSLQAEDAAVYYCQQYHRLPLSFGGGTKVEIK

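Phage display of a naive human antibody library on the peptide gave the parent. The library (AAYL49) carries one to three amino acid substitutions per variant, with no insertions or deletions. The scFvs were displayed on barcoded MATa yeast, the peptide on MATalpha yeast. After mating in shaken culture at 30 °C for 16 h, diploids were selected and their barcode pairs sequenced. A regression on co-assayed BCL2-family reference pairs converts the normalised counts of each replicate to an apparent Kd. There are three technical replicates.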

Variants are written as CDR1, CDR2 and CDR3 of the heavy chain (limits as in the source). Parent: GFTLNSYGIS, VIYSDGRRTFYGDSVK, GRAAGTFDS. Numbers give log10(Kd / nM), so 0 is 1 nM and 3 is 1 µM. Smaller is tighter. "ND" means that the variant was in the library but no mating with the target was seen in that replicate; the authors take this as a sign of poor binding, and no number exists. Parent in this assay: reference entry 0.65, copy in this library 4.11 (one replicate of three). As a blank, each scFv also met three strains without target: over library AAYL49, 15% of these pairings were detected, typically at 4.06 and seldom below 2.83.

CDR-H1	CDR-H2	CDR-H3	log10 Kd, replicates
GFTLNSYGIS	VIYSDGIRTFMGDSVK	GRAAGTFDG	3.51 3.09 3.55
GFTLNSYGIS	EQYSDGRRTFYGDSVK	GRAAGTFDN	ND ND ND
GFTLNSVGIW	VIYSDGRETFYGDSVK	GRAAGTFDS	3.08 4.64 ND
GFTLNSPGIS	VPYSDGRRTFYGDSVK	GRAGGTFDS	ND ND ND
GFTLNSYGIS	FIYSDGRETPYGDSVK	GRAAGTFDS	ND ND ND
GFTLNSYGIS	VIYSDGRRTYYEDSVK	GRAWGTFDS	ND ND ND
GFTKNSYSIC	VIYSDGRRTFYGDSVK	GRAAGTFDS	ND ND ND
GFTLNSYGIS	VIGSDGRRTFYGDSVK	GRSAGTFDS	ND ND ND
GFDLNSYGIS	VIYSDGRRTFYGDSFK	GRAAGRFDS	1.68 2.07 2.22
GFTLNSYGIS	VIYSDGRRTFYNVSVK	GRAAGTFDD	ND 3.19 6.23
GFTLNSYGIS	VIYQMGRRTFYGDSAK	GRAAGTFDS	ND ND ND
GFTLNSYGIS	VIYSDWRRTYYGDSVK	GRAAATFDS	3.47 ND ND
GFTLNSYLIS	VIYSDGRRTFYGDSVF	GRAAGVFDS	3.41 4.07 ND
GFTLNGYGIS	VIYSDGRRTFYGKSVQ	GRAAGTFDS	2.64 2.71 2.33
GFTLNEYGIS	VIYSDGKRTFYGDSLK	GRAAGTFDS	1.71 1.68 2.21
GFTLNSYGIS	VIYNDCRRTFYGDSVD	GRAAGTFDS	3.97 ND ND
QFTLNSYGIS	VINSDGRRTFYGDSVK	GRAAGPFDS	ND ND ND
GETLNSRGIS	VIYSDLRRTFYGDSVK	GRAAGTFDS	ND 3.45 4.04
FFTLNSYGIS	VIYSDGTRTFYGDSVK	GRAAGTGDS	3.90 2.65 3.33
GFDLNSTGIS	VIYSDGRRTFYGDSVK	GRAAGPFDS	5.77 ND 3.88
GFTLSSYGIS	VIYSDGRRTFYGDSVK	GRAATTFNS	0.81 0.88 1.23
GFTLNSYGMS	VIYSDGRRTDYTDSVK	GRAAGTFDS	4.65 ND ND
GFTDNSQGIS	VIYSDGRRHFYGDSVK	GRAAGTFDS	3.18 ND ND
GFTLDSYGIS	VIYSDGRRTFYGDSVN	GRGAGTFDS	2.26 2.36 2.42
IFTLNSTGIS	VIYSDGRRTFYGDSVK	GGAAGTFDS	ND ND 5.49
GFTLNSYGIS	VIYSCGRRTFYGDEVK	GHAAGTFDS	ND ND ND
LFTLNSYGIS	VIYSVGRRTKYGDSVK	GRAAGTFDS	ND ND ND
GFTLNSWGSS	VIKSDGRRTFYGDSVK	GRAAGTFDS	3.97 ND ND
GFHGNSYGIS	VIYSDGRRTFDGDSVK	GRAAGTFDS	ND ND ND
GFTLNSYGIS	VIYSDGRRMWYGDSVK	GTAAGTFDS	2.12 2.73 2.26
GFTLNSYGIS	VIYSDGRRTFYGDSVL	GRIAGTFDS	1.56 1.70 1.67
GFTLNSYYIS	VITGDGRRTFYGDSVK	GRAAGTFDS	ND 4.67 3.93
GFTLNSYGIS	VHYSDGNRTFYGDSVK	GYAAGTFDS	ND ND ND
GFTLNSYGIS	VIYSDGRRKFYGDDVK	GRAAGTFDS	0.78 0.95 0.90
GFTLNYYGIS	VIYSDGRRTFYGDCVK	GRAAKTFDS	2.46 2.31 2.92
GFTLNSYGHA	VIYSDGRRTFFGDSVK	GRAAGTFDS	ND ND ND

A selection of 3 entries from above:

{"CDR-H1": "GFTLNSPGIS", "CDR-H2": "VPYSDGRRTFYGDSVK", "CDR-H3": "GRAGGTFDS", "log10 Kd, replicates": "ND ND ND"}
{"CDR-H1": "GFTLNSYGIS", "CDR-H2": "VIYNDCRRTFYGDSVD", "CDR-H3": "GRAAGTFDS", "log10 Kd, replicates": "3.97 ND ND"}
{"CDR-H1": "GFTLNSYYIS", "CDR-H2": "VITGDGRRTFYGDSVK", "CDR-H3": "GRAAGTFDS", "log10 Kd, replicates": "ND 4.67 3.93"}